AlphaSeq binding of Ab-95 light chain variants to a spike HR2 peptide

Data: MIT Lincoln Laboratory AlphaSeq set, Engelhart et al. 2022, doi:10.1038/s41597-022-01779-4, as distributed in FLAb.

Target: peptide PDVDLGDISGINAS, taken from heptad repeat 2 (HR2) of SARS-CoV-2 spike.

Ab-95 is the parent antibody, in scFv form: VH, then three GGGGS repeats, then VL. The heavy chain is unchanged in all variants.
VH: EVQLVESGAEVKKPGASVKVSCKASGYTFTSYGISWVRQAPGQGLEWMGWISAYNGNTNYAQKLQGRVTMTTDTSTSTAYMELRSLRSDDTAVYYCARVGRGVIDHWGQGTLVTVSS
VL: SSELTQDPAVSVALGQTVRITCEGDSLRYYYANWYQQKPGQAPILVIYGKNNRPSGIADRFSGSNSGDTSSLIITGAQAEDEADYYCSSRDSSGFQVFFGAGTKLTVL

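Phage display of a naive human antibody library on the peptide gave the parent. Library AAYL52 holds single substitutions and randomly drawn double and triple substitutions in the CDRs. The assay is AlphaSeq: two haploid yeast populations carry antibody and antigen on their surface. Binding brings cells together so that they mate, and sequencing counts the barcode pairs among the diploids. Scores were corrected for input abundance and mapped to Kd with protein pairs of known affinity run in the same pool. Each pool was mated in three replicate cultures.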

Variants are written as CDR1, CDR2 and CDR3 of the light chain (limits as in the source). Parent: EGDSLRYYYAN, GKNNRPS, SSRDSSGFQVF.
Scale: log10 of Kd in nM, estimated from mating counts; low values are strong binders.
Averages over replicates are reported, and they cover detected replicates only.
"n.d." means that the variant was in the library but no mating with the target was seen in that replicate; the authors take this as a sign of poor binding, and no number exists.

| # | CDR-L1 | CDR-L2 | CDR-L3 | log10 Kd (nM) by replicate | mean log10 Kd (nM) | signal with controls |
|---|---|---|---|---|---|---|
| 1 | EGDSLRYYYAN | GKNVRPS | SSRDSQGFQVL | 2.90 / 2.32 / 1.91 | 2.38 | 5 of 9 (3.81) |
| 2 | EGDSLRYYYAN | GKNHRPS | WSRDSSGFQVN | n.d. / 3.07 / 3.81 | 3.44 | 2 of 9 (3.95) |
| 3 | WGDSLRYYYAN | GKNNRPS | SFRDSSGFQPF | n.d. / n.d. / n.d. | n.d. | 4 of 9 (4.13) |
| 4 | EGDSLRYYIAN | GKNNYPS | SSRGSSGFQVF | n.d. / 5.07 / n.d. | 5.07 | 1 of 9 (5.36) |
| 5 | EGDSLRYYYAN | GKNNRPS | SSRFMSGFQVK | n.d. / 5.41 / n.d. | 5.41 | 3 of 9 (3.73) |
| 6 | EGDSGRYYYAN | GKNNRPS | SSRDSSGFQVF | 3.41 / 3.48 / n.d. | 3.45 | 4 of 9 (3.04) |
| 7 | EGDALRYTYAN | GKNNRPS | SSRDSSGFQDF | 1.83 / 2.10 / 1.59 | 1.84 | 4 of 9 (4.06) |
| 8 | EQDSLRYYYTN | GQNNRPS | SSRDSSGFQVF | n.d. / n.d. / n.d. | n.d. | 0 of 9 |
| 9 | CQDSWRYYYAN | GKNNRPS | SSRDSSGFQVF | 5.05 / n.d. / n.d. | 5.05 | 0 of 9 |
| 10 | EGDQLRYYYAN | GKNVRPS | SKRDSSGFQVF | 2.40 / 2.27 / 1.95 | 2.21 | 6 of 9 (3.74) |
| 11 | EGDSLRYYYAN | GKNNRPQ | SSQDSSGMQVF | 3.67 / n.d. / n.d. | 3.67 | 1 of 9 (3.35) |
| 12 | EGDSLRYYYAN | GKNNRPS | SSADSSGFMCF | 2.43 / 2.59 / 2.38 | 2.47 | 2 of 9 (3.33) |
| 13 | EGISLRNYYAK | GKNNRPS | SSRDSSGFQVF | n.d. / n.d. / 3.49 | 3.49 | 0 of 9 |
| 14 | CGDSLRYHYAN | GKNNRPS | SPRDSSGFQVF | n.d. / n.d. / n.d. | n.d. | 0 of 9 |
| 15 | EGDSLRGYYAN | GKNNRPS | SSRDSSAAQVF | n.d. / n.d. / 4.03 | 4.03 | 5 of 9 (3.38) |
| 16 | EGDSLRYYYAN | GKNNEPS | SSLDSSGFQVG | 5.00 / 4.08 / 2.71 | 3.93 | 1 of 9 (2.94) |
| 17 | EGDSLRYYYAY | GKNNRPS | SSRSSSNFQVF | n.d. / n.d. / n.d. | n.d. | 3 of 9 (3.72) |
| 18 | EGDSLRYYYAN | LKNNRPS | SSRDSSGFQVF | 3.73 / n.d. / n.d. | 3.73 | 0 of 9 |
| 19 | LGDSLRYYYAN | GKNNRPS | SHRDSSGFGVF | n.d. / n.d. / n.d. | n.d. | 0 of 9 |
| 20 | EGDSLRYYYAN | GKNNRYS | SSNDESGFQVF | 3.96 / n.d. / 3.58 | 3.77 | 1 of 9 (4.19) |
| 21 | EGDSLRYQFAN | MKNNRPS | SSRDSSGFQVF | 2.29 / 2.13 / 2.13 | 2.18 | 1 of 9 (3.76) |
| 22 | EGDSLRYYTAN | GKNNRPS | SYRDSSGFQVE | 2.29 / 2.31 / 2.09 | 2.23 | 5 of 9 (3.78) |
| 23 | EGDSLRYYYVN | GKFNRPM | SSRDSSGFQVF | 4.24 / n.d. / 4.03 | 4.14 | 1 of 9 (2.84) |
| 24 | PGDSLRYYYRN | GKNNRWS | SSRDSSGFQVF | n.d. / 3.40 / n.d. | 3.40 | 4 of 9 (3.85) |
| 25 | EGDSRRYYYAN | GKQNRPS | SSPDSSGFQVF | n.d. / n.d. / n.d. | n.d. | 0 of 9 |
| 26 | EGDSLRYYYAN | GKNNRPS | CSRDSSGFQVF | 1.91 / 1.89 / 2.58 | 2.13 | 2 of 9 (3.06) |
| 27 | EGDSLRYYYAN | GKNNRPS | SSRDCSKFQVI | 3.78 / 3.87 / n.d. | 3.82 | 3 of 9 (3.36) |
| 28 | QGDSLRYYYAN | GKCNRPS | SSRDSSMFQVF | n.d. / n.d. / n.d. | n.d. | 1 of 9 (3.52) |
| 29 | EGDSLSYYYAN | GKNNRPS | SSRDSWGPQVF | 3.50 / 2.49 / 2.40 | 2.80 | 4 of 9 (3.82) |
| 30 | EGDSLRYYYEN | GKNWRKS | SSRDSSGFQVF | 5.26 / n.d. / n.d. | 5.26 | 0 of 9 |
| 31 | EGDFLRFYYAN | TKNNRPS | SSRDSSGFQVF | 4.23 / n.d. / n.d. | 4.23 | 4 of 9 (4.39) |
| 32 | EGKSLRYYYAN | GKNNRPS | SSRDSSGAQFF | 4.07 / n.d. / 4.61 | 4.34 | 4 of 9 (4.24) |
| 33 | EGDSLQYYYAK | GKNNRDS | SSRDSSGFQVF | 4.28 / n.d. / n.d. | 4.28 | 0 of 9 |
| 34 | EGDSLRYYYAN | GKNNRPM | KSRFSSGFQVF | n.d. / n.d. / n.d. | n.d. | 1 of 9 (3.67) |
| 35 | EGDSLRGYYAN | GKNNRPT | SSRDSSGWQVF | 1.81 / 1.84 / 1.32 | 1.66 | 4 of 9 (4.20) |

Picked from the list: the 5 lowest averages where every replicate gave a value.

| CDR-L1 | CDR-L2 | CDR-L3 | log10 Kd (nM) by replicate | mean log10 Kd (nM) | signal with controls |
|---|---|---|---|---|---|
| EGDSLRGYYAN | GKNNRPT | SSRDSSGWQVF | 1.81 / 1.84 / 1.32 | 1.66 | 4 of 9 (4.20) |
| EGDALRYTYAN | GKNNRPS | SSRDSSGFQDF | 1.83 / 2.10 / 1.59 | 1.84 | 4 of 9 (4.06) |
| EGDSLRYYYAN | GKNNRPS | CSRDSSGFQVF | 1.91 / 1.89 / 2.58 | 2.13 | 2 of 9 (3.06) |
| EGDSLRYQFAN | MKNNRPS | SSRDSSGFQVF | 2.29 / 2.13 / 2.13 | 2.18 | 1 of 9 (3.76) |
| EGDQLRYYYAN | GKNVRPS | SKRDSSGFQVF | 2.40 / 2.27 / 1.95 | 2.21 | 6 of 9 (3.74) |

Nonspecific signal, from three strains lacking the peptide, appeared in 28% of pairings of library AAYL52, centred on 3.91 (5% of these signals below 2.90); values are not corrected for it. The control count says in how many pairings with the empty strains this scFv gave a signal, with their mean in brackets.